Reference: US9273014B2 (dated 2016)

Amino acid sequences for entries named in this document (tags omitted). Residues count along the entry.
UniProt Q9UM47, 40-2321 limits assumed: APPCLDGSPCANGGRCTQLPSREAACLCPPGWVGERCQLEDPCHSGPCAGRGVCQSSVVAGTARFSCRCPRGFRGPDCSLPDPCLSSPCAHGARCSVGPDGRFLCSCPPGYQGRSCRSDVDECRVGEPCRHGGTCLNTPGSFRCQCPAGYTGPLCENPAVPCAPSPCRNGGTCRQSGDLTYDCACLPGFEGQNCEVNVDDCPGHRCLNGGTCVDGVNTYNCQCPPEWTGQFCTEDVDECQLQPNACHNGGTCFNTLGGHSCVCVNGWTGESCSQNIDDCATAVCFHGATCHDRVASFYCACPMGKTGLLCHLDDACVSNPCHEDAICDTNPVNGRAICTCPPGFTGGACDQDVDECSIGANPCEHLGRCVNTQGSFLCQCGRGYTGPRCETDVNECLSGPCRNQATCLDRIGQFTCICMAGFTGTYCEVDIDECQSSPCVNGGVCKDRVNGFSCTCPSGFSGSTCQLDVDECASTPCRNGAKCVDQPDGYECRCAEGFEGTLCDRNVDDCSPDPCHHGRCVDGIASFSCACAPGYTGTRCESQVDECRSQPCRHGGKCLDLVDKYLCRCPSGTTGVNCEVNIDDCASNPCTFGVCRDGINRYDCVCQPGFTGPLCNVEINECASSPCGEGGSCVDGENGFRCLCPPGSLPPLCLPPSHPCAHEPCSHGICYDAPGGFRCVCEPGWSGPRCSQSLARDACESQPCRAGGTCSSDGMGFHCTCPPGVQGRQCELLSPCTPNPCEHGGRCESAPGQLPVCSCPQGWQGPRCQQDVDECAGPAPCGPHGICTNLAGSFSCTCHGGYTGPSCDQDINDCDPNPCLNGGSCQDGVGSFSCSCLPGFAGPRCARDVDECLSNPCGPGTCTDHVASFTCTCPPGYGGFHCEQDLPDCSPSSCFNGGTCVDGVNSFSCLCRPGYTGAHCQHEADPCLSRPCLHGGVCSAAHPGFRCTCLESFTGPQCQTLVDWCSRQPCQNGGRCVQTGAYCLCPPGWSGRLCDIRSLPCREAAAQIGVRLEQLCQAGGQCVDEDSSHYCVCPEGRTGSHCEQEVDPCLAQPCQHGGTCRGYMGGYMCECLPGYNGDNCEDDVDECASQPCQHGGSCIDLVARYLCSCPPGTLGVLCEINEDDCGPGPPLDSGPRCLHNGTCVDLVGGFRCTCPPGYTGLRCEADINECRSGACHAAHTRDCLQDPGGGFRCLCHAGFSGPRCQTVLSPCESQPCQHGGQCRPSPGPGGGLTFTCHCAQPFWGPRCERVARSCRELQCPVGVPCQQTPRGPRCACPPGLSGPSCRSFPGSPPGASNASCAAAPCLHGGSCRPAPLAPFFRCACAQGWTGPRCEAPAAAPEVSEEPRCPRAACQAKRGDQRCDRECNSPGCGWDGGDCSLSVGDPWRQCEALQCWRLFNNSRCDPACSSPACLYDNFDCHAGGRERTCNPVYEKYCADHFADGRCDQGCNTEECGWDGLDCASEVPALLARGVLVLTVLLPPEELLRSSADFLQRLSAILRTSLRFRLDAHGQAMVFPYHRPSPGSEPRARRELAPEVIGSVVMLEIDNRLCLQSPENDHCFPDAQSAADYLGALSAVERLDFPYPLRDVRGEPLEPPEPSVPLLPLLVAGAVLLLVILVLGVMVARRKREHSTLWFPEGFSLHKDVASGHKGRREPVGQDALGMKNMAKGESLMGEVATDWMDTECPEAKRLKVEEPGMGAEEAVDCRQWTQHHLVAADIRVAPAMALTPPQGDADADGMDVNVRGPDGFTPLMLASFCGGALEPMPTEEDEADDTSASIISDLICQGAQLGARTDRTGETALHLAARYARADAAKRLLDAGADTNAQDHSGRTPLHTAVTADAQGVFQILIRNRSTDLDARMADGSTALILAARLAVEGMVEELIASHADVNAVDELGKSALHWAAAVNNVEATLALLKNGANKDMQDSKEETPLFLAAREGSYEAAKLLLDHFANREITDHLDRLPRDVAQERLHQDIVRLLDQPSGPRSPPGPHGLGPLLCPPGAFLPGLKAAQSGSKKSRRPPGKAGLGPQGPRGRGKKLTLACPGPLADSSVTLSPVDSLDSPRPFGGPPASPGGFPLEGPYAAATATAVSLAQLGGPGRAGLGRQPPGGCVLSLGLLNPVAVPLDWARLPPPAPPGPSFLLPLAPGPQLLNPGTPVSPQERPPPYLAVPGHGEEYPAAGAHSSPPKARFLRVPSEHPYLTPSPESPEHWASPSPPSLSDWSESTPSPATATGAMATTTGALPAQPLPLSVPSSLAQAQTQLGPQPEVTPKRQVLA
UniProt P46531, 19-2555 limits assumed: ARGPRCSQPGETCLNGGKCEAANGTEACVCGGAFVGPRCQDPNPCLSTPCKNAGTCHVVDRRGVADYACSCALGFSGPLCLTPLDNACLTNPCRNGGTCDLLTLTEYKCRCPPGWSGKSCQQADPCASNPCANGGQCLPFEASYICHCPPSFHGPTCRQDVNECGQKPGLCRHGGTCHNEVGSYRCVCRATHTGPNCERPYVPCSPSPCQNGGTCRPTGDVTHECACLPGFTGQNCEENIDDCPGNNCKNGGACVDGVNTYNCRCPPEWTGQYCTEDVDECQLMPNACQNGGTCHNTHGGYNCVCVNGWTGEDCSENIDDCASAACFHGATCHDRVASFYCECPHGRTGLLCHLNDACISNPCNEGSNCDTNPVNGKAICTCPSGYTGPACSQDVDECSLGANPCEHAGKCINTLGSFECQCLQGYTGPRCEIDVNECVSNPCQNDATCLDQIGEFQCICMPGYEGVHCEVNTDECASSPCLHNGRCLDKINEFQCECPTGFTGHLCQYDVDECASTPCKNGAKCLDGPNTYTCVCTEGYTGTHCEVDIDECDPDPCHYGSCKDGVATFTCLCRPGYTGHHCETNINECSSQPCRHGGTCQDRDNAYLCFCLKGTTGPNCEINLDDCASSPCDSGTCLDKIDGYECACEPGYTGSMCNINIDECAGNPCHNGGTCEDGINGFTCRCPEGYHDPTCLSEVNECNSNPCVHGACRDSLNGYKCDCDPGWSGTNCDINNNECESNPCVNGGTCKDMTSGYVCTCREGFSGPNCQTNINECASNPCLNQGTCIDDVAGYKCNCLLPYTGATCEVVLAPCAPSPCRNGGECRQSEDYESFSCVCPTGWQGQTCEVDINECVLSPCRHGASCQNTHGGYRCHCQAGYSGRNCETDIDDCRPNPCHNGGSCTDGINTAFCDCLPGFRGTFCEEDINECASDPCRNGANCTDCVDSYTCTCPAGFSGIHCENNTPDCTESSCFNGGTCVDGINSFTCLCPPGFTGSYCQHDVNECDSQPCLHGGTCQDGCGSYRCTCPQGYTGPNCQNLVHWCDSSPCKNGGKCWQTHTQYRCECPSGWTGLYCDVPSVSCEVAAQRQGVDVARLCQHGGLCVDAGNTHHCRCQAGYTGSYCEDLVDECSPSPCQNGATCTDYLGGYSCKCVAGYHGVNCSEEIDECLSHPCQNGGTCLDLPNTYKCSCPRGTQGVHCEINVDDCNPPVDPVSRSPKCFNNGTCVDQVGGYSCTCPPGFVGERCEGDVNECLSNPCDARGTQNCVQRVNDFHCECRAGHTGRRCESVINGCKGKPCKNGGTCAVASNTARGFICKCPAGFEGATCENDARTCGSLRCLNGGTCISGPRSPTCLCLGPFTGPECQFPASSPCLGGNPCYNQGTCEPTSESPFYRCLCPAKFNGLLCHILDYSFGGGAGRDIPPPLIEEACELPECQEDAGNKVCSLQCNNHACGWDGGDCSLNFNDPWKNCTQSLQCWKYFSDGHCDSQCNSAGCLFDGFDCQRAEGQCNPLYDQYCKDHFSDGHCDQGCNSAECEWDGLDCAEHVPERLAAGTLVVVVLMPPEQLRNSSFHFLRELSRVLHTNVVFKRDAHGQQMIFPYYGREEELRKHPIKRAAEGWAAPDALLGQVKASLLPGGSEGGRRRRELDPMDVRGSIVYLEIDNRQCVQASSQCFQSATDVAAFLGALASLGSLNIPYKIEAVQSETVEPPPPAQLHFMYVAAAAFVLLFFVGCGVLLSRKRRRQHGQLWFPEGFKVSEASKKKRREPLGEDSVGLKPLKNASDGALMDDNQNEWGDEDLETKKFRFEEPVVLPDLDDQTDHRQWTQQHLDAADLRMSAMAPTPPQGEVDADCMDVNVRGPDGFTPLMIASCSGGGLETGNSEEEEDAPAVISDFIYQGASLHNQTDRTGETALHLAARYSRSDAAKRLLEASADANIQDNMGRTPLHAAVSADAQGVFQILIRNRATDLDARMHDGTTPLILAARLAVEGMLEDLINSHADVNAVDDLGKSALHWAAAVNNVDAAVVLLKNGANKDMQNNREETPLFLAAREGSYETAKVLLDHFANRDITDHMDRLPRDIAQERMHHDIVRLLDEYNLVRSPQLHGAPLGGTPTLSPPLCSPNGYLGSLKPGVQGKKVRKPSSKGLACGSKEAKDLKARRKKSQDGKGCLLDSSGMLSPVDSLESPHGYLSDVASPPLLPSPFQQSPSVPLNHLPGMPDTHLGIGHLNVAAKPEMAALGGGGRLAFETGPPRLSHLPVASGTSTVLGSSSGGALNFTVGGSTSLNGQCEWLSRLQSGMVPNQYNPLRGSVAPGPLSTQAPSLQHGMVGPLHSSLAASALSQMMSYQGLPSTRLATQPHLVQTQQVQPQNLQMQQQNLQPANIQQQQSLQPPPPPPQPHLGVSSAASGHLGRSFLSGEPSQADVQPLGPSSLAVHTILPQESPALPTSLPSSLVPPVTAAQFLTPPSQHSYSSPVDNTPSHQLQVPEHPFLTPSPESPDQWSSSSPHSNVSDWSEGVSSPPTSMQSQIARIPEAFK

Experiments:
human Notch 3 = human Notch 3 (Homo sapiens, UniProt Q9UM47); test: Notch-CBF1 Transactivation Assay (Notch 3); format: cell-based; conditions: read-out: Notch 3 (IC50); HeLa cells co-transfected with truncated Notch 3 and CBF1 luciferase reporter; 18 hours incubation
human Notch 1 = human Notch 1 (Homo sapiens, UniProt P46531); conditions: read-out: Notch 1 (IC50); HeLa cells co-transfected with truncated Notch 1 and CBF1 luciferase reporter; 18 hours incubation

Structure (SMILES) | IC50 (human Notch 3) [nM] | IC50 (human Notch 1) [nM]
Cc1cccc2c1NC(=O)[C@@H](NC(=O)[C@H](CCC(F)(F)F)[C@H](CCC(F)(F)F)C(N)=O)N=C2c1cccc(Cl)c1 [Example 7, (2R,3S)—N-((3S)-5-(3-Chlorophenyl)-9-methyl-2-oxo-2,3-dihydro-1H-1,4-benzodiazepin-3-yl)-2,3-bis(3,3,3-trifluoropropyl)succinamide] | 4.4 | 4.4
Cc1cccc(C2=N[C@H](NC(=O)[C@H](CCC(F)(F)F)[C@H](CCC(F)(F)F)C(N)=O)C(=O)Nc3c(OC4CC4)cccc32)c1 [Example 15, (2R,3S)—N-((3S)-9-(Cyclopropyloxy)-5-(3-methylphenyl)-2-oxo-2,3-dihydro-1H-1,4-benzodiazepin-3-yl)-2,3-bis(3,3,3-trifluoropropyl)succinamide] | 4.4 | 4.4
COc1cccc2c1NC(=O)[C@@H](NC(=O)[C@H](CCC(F)(F)F)[C@H](CCC(F)(F)F)C(N)=O)N=C2c1ccc(Cl)cc1 [Example 27, (2R,3S)—N-((3S)-5-(4-Chlorophenyl)-9-methoxy-2-oxo-2,3-dihydro-1H-1,4-benzodiazepin-3-yl)-2,3-bis(3,3,3-trifluoropropyl)succinamide] | 2.7 | 2.8
NC(=O)[C@@H](CCC(F)(F)F)[C@@H](CCC(F)(F)F)C(=O)N[C@H]1N=C(c2ccc(CO)cc2)c2ccccc2NC1=O [Example 30, (2R,3S)—N-((3S)-5-(4-(Hydroxymethyl)phenyl)-2-oxo-2,3-dihydro-1H-1,4-benzodiazepin-3-yl)-2,3-bis(3,3,3-trifluoropropyl)succinamide] | 4.2 | 4.3
Cc1cccc(C2=N[C@H](NC(=O)[C@H](CCC(F)(F)F)[C@H](CCC(F)(F)F)C(N)=O)C(=O)Nc3ccccc32)c1 [Example 32, (2R,3S)—N-((3S)-5-(3-Methylphenyl)-2-oxo-2,3-dihydro-1H-1,4-benzodiazepin-3-yl)-2,3-bis(3,3,3-trifluoropropyl)succinamide] | 6.1 | 6.4
NC(=O)[C@@H](CCC(F)(F)F)[C@@H](CCC(F)(F)F)C(=O)N[C@H]1N=C(c2cccc(F)c2)c2cccc(CO)c2NC1=O [Example 37, (2R,3S)—N-((3S)-5-(3-Fluorophenyl)-9-(hydroxymethyl)-2-oxo-2,3-dihydro-1H-1,4-benzodiazepin-3-yl)-2,3-bis(3,3,3-trifluoropropyl)succinamide] |  | 6.2
